Data as given in article PMC5458179, “Oxidative DNA double strand breaks and autophagy in the antitumor effect of sterically hindered platinum(II) complexes in NSCLCs” (Oncotarget, 2017).

Test system: A549 xenograft tumors
Settings: 5 mg/kg i.v.
Method: To evaluate the anti-tumor effect of complex 3 in vivo, an xenografts nude mice model of A549 cancer cells was performed. […] At the end of treatments, the tumor weight was measured to detect the antitumor activity of these measured groups. […] Because platinum-based drugs are well known for their toxic effects on the mean bodyweights of treated animals, the toxicity of complex 3 in the body weights of mice was assayed. […] The mice treated with the tested complex 3 were selected for histological analyses.
Thirty-five nude mice (BALB/c) with body weight range from 18–22 g, were supplied by Shanghai Laboratory Animal Center, China Academy of Sciences. […] The tumor growth was monitored by measuring the perpendicular diameter of the tumor using calipers every two days and calculated according to the formula: […]
Growth curves were plotted using the average tumor volume within each experimental group at the set time points. The whole group of mice was sacrificed after the last treatment, then tumor weight was evaluated as the antitumor activity of the corresponding groups, and the kidneys, livers and tumors were excised for immunohistochemistry analysis. The body weight and physical state of the mice were measured simultaneously as an indicator of systemic toxicity.

For `O=C1[O][Pt]2([NH][C@@H]3CCCC[C@H]3[NH]2)[O]C1=O` [Oxaliplatin, oxaliplatin, reference compound], the “bodyweights of mice during treatment” value was “continuous decrease of bodyweights”.
